The values below are quoted from earlier work in publication PMC6608750.

By UniProt entry, the sequences of proteins in these tests, tags left out. Residues count along the entry.
UniProt P10275, 1-559: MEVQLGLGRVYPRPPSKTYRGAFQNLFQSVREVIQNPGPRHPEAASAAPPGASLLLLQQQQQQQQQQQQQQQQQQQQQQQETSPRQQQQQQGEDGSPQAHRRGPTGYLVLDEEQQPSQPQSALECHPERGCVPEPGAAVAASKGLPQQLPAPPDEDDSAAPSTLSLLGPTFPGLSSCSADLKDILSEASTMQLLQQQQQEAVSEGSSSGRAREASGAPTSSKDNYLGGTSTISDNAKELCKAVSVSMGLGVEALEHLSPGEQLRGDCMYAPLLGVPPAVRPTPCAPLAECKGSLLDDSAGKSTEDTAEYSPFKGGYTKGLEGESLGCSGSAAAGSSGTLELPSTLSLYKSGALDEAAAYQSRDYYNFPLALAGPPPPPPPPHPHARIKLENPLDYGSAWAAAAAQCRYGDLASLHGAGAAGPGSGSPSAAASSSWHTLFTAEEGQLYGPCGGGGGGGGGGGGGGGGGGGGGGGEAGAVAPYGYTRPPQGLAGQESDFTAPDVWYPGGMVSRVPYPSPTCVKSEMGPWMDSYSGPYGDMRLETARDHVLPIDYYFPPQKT

The series concerns the target Androgen receptor TAD (Homo sapiens) (UniProt P10275).

What is called Kd is a measure of binding affinity in units of concentration. Regarding BRD4 (from UniProt O60885), the Kd is 70 nM.
